Assay results reported in article PMC10763754 (Science Advances, 2021).

Amino acid sequences for entries named in this document (tags omitted). A change or cut given only in a name is not applied to a line headed by its entry.
UniProt P49427: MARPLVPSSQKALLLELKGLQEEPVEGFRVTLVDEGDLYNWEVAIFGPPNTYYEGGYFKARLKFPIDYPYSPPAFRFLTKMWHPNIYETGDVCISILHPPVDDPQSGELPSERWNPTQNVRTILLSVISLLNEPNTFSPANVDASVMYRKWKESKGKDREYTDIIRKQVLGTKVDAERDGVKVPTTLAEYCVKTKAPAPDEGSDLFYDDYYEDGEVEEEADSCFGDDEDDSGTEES

Assays:
CDC34A = CDC34A (Homo sapiens, UniProt P0CG48+P49427); assay: Substrate-independent gel-based in vitro ubiquitination assay; type: biochemical
CDC34A-ubiquitin complex = CDC34A-ubiquitin complex (Homo sapiens, UniProt P0CG48+P49427); assay: biochemical; type: binding; details: TR-FRET EC50, text, figures and Tables S3-S5; mean ± SD (n = 3)

## COCC(=O)N[C@@H](Cc1ccc(-c2cc(Cl)cc(Cl)c2)cc1)[C@H](O)[C@@H](O)C(=O)O [CC0651]
CDC34A
  IC50: 2.4 µM
CDC34A-ubiquitin complex
  EC50: 31 µM
